Target: T1, Trace amine-associated receptor 1 (Homo sapiens) (UniProt Q96RJ0)
T1 sequence (whole entry): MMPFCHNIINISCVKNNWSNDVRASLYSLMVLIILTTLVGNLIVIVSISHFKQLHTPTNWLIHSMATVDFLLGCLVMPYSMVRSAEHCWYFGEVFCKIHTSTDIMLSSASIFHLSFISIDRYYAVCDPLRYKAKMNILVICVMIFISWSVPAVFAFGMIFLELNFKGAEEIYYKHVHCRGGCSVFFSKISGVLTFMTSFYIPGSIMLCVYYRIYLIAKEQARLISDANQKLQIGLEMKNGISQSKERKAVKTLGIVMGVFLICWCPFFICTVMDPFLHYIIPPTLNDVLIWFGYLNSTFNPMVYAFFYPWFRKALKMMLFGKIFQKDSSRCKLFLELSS
Assay: Activation of human TAAR1 expressed in CHOK1 cells co-expressing Gq protein, Galpha16 using calcium4 dye by microplate reader
Format: functional, cell-based
Settings: CHO-K1

`C[C@H](N)Cc1cccc(C(F)(F)F)c1` showed an Activity of 43%.

Reference: ChEMBL document CHEMBL1926662, “Trace amine-associated receptor 1 is a stereoselective binding site for compounds in the amphetamine class” (Bioorg Med Chem, 2011)
